Results on 30 molecules are retold here after PubChem BioAssay AID2052 (NMMLSC, 2009).

The structures appear in SMILES notation. Only a part is listed here, and it is no random draw. Activity calls are given as the source filed them.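 Rule for the calls: active = response, share of CD8 T cells binding vesicles, and their 90th percentile fluorescence all below set limits (cut at about 80% in these data, passing the limit was not always enough); inactive = the rest, inconclusive results apart.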

A short description of the test: murine CD8 T cell vesicle adhesion modulation – mouse 2C CD8+ T cells, flow cytometry, primary screen (AID 2052).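 Note: values below 100% mean blocked vesicle binding to the CD8+ T cells.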 Conditions: 2C CD8+ T cell-vesicle binding, at 7 µM, stronger effect = lower value. A digest of the protocol: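 Material: 2C TCR transgenic mouse naive CD8+ T cells, MACS-purified. Also added: QL9-charged Drosophila Ld/ICAM-1/B7-1 vesicles. Timing: binding 1.5 h at 37 °C. Measured by: high-throughput flow cytometry with anti-B7-1 and anti-CD8 staining. Read-out: percent CD8+ FL2 mean versus row control. Controls: Unloaded micro-vesicles (low), QL9 vesicles with 0.7% DMSO (high).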
A general note: A flow cytometer gives signals particle by particle.
As to `CCc1cc(C(=O)NCC2(N3CCCCC3)CCCCC2)sc1C`, the response (vesicle binding) was inactive: 304%.
With `O=C(OC1CN2CCC1CC2)C1c2ccccc2C=Cc2ccccc21` (stereo not given) the figure was inactive: 282%.
With `N/C(=N\O)c1c(N)no[n+]1[O-]` the figure was inactive: 133%.
With `CCOC(=O)N1CCC(Nc2ccc(C)cc2)CC1`, the response (vesicle binding) is inactive: 218%.
On to `COc1ccc(C(=O)NCC2(N3CCOCC3)CCCCC2)cc1OC`, for which the response (vesicle binding) is inactive: 510%.
As for `O=C(NCC1(N2CCOCC2)CCCCC1)c1cc(Br)ccc1Cl`, the figure is inactive: 303%; as for `COc1cc(C(=O)NCC2(N3CCOCC3)CCCCC2)cc(OC)c1C`, inactive: 318%.
With `c1ccc(CN2CCC(Nc3ccccc3)CC2)cc1` the figure was inactive: 392%; with `CCCN1CCC(Nc2cc(OC)cc(OC)c2)CC1`, inactive: 121%; with `CN(C)C1(CNC(=O)c2cccc(C#N)c2)CCCCC1`, inactive: 78.4%.
On to `CC(C)(C)OC(=O)N1CCC(N(C(=O)c2ccccc2)c2ccc(Cl)cc2)CC1`, for which the response (vesicle binding) is inactive: 202%.
With `N#Cc1ccc(C(=O)NCC2(N3CCCCC3)CCCCC2)cc1` the figure was inactive: 215%; with `O=C(NCC1(N2CCCCC2)CCCCC1)c1ccco1`, inactive: 312%; with `CN(C)c1ccc(C(=O)NCC2(N3CCCCC3)CCCCC2)cc1`, inactive: 275%.
With `CCN1CCC(Nc2cccc(F)c2)CC1` the figure was inactive: 239%; with `Cc1ccc(C(=O)NCC2(N3CCCCC3)CCCCC2)o1`, inactive: 256%; with `Fc1ccccc1NC1CCN(Cc2ccccc2)CC1`, inactive: 240%.
For the molecule `COc1cc(OC)cc(C(=O)NCC2(N3CCCCC3)CCCCC2)c1`, the response (vesicle binding) was inactive: 531%.
With `CCCOc1ccc(C)cc1CN(CCCl)CCCl` the figure was inactive: 644%.
For the molecule `CN1CCC(Nc2ccc(Cl)cc2)CC1`, the response (vesicle binding) was inactive: 238%.
On to `CCC(CO)(C(=O)OC1CN2CCC1CC2)c1ccccc1` (stereo not given), for which the response (vesicle binding) is inactive: 263%.
Take `COc1cc(OC)cc(C(=O)NCC2(N3CCOCC3)CCCCC2)c1`: the response (vesicle binding) was inactive: 199%.
With `COc1cccc(C(=O)N(c2cc(C)cc(C)c2)C2CCN(C(=O)OC(C)(C)C)CC2)c1` the figure was inactive: 587%; with `CCCOc1ccc(C(=O)NCC2(N(C)C)CCCCC2)cc1`, inactive: 229%.
With `CC(C)(C)OC(=O)N1CCC(Nc2ccccc2)CC1` the figure was inactive: 542%; with `O=C(O)C1(Nc2ccccc2)CCN(Cc2ccccc2)CC1`, inactive: 171%.
With `CCOc1ncccc1C(=O)NCC1(N2CCOCC2)CCCCC1` the figure was inactive: 241%; with `CN1CCC(Nc2ccc(F)c(Cl)c2)CC1`, inactive: 205%; with `CCOC(=O)N1CCC(Nc2ccc(OC)cc2)CC1`, inactive: 478%.
`N#CC1(Nc2ccccc2)CCN(Cc2ccccc2)CC1`: the response (vesicle binding) is inactive: 129%.
